Data set [1] can be described thus: Stability in animals (data not shown). Conditions: result in words.
Data set [2] deals with snake venom phosphodiesterase. As to the kind of experiment: Relative resistance to 3' exonucleolytic degradation by snake venom phosphodiesterase (hyperchromicity at A260). Conditions: snake venom phosphodiesterase 1.5 milliunits, 37° C.

Consider ACACCCAATTCTGAAAATGG, for which the stability in animals result in data set [1] is “is not”. In addition, the t1/2 in data set [2] (pH 8.5) amounted to 44 s. In addition, in data set [2] (pH 8.5, A260), the “% increase in hyperchromicity” value is given as 22.56%.

The values above are taken from patent US5929226A, “Antisense oligonucleotide alkylphosphonothioates and arylphospohonothioates” (dated 1999).
